Test system: aromatase
Settings: human placental microsomes

`CCCN1C(=O)C2CC(c3ccc(N)cc3)(C2)C1=O` [Example 1, 1-(4-aminophenyl)-3-n-propyl-3-azabicyclo[3.1.1]heptane-2,4-dione] was tested, and the “enzyme activity (NADPH content), read as content of water having radioactive tritium isotopes” value ([1β,2β-3H]-testosterone substrate, compared with measurements made without addition of compound) was “substantially reduces the enzyme activity” and the “reduction in enzyme activity compared with other known aromatase inhibitors, for example aminoglutethimide” value (comparison measurements at the same concentrations, comparator aminoglutethimide) was “substantially greater”.
